Test results: patent publication EP4810518A2, “ANTIBODY THAT BINDS ERBB-2 AND ERBB-3” (Merus B.V., priority 2017, dated 2018)
“And” between values parts separate entries of the source, which are not always exact repeats. Equal entries are not always repeated.

System: intracranial ST1360B PDX tumors
Conditions: individual mouse, scale 0-4 (0 no, 4 massive brain edema)

T-DM1
Brain edema score day 3 (day 3 post initiation of therapy): 1 and 2 | Brain edema score day 7 (day 7 post initiation of therapy): 2 and 1 and 3 | Brain edema score day 10 (day 10 post initiation of therapy): 2 and 0 and 3 and 1 | Brain edema score day 14 (day 14 post initiation of therapy): 3 and 2 | Brain edema score day 21 (day 21 post initiation of therapy): 4 and 2 | Brain edema score day 28 (day 28 post initiation of therapy): 4 and 3 | Brain edema final score (last MR scan of each mouse): 2 and 3 and 4
